## Ab-95 light chain CDR variants: yeast mating affinities

From the AlphaSeq antibody data of Engelhart et al. 2022 (doi:10.1038/s41597-022-01779-4), copy in the FLAb collection.

Target peptide (SARS-CoV-2 spike, HR2 region): PDVDLGDISGINAS

Ab-95 is the parent antibody, in scFv form: VH, then a (GGGGS)3 linker, then VL. The heavy chain is unchanged in all variants.
VH: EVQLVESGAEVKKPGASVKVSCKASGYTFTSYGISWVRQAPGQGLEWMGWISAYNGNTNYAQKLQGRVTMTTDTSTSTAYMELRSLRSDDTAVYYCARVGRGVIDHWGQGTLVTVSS
VL: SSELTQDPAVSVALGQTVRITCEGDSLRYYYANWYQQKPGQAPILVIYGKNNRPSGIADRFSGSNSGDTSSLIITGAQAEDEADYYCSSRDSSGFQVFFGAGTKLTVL

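The parent was found by panning a naive human phage display library on the peptide. Library AAYL52 holds single substitutions and randomly drawn double and triple substitutions in the CDRs. AlphaSeq pools MATa yeast showing the antibodies with MATalpha yeast showing the peptide. Mating (16 h, 30 °C) was followed by selection of diploids and sequencing of their barcodes. The ratio of observed to expected reads was calibrated, replicate by replicate, on BCL2-family standards whose Kd was known from biolayer interferometry. Mating was done three times.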

Sequences are complete VL domains. Affinities are written as log10 Kd with Kd in nM; a lower number is a better binder. The mean shown is taken over the replicates in which the pair was detected. An entry "n.d." has no value in the source: the pair was not observed among the diploids in that replicate. This suggests poor binding but is not conclusive.

VL	replicates, log10 nM	mean log10 Kd (nM)	empty controls
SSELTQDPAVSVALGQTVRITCEGWSLRYYYANWYQQKPGQAPILVIYGKNNRSSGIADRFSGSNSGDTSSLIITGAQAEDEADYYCSSRMSSGFQVFFGAGTKLTVL	3.67 3.10 3.09	3.29	4/9 (4.12)
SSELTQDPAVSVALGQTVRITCEGDSLMYYYANWYQQKPGQAPILVIYGKANRPSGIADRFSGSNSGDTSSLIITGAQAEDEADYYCSSIDSSGFQVFFGAGTKLTVL	n.d. n.d. 3.46	3.46	0/9
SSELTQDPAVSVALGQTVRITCEGDSLRYCYANWYQQKPGQAPILVIYGKQNRPSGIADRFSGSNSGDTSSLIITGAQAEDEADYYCSSRDSSGFQVFFGAGTKLTVL	3.32 2.87 2.71	2.97	0/9
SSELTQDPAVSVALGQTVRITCEGDSERYYYANWYQQKPGQAPILVIYGKNNRPSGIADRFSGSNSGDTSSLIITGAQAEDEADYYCSERRSSGFQVFFGAGTKLTVL	n.d. 5.28 n.d.	5.28	0/9
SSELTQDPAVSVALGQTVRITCEGDSERYYYANWYQQKPGQAPILVIYWENNRPSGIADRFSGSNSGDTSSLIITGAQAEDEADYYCSSRDSSGFQVFFGAGTKLTVL	4.72 n.d. n.d.	4.72	3/9 (4.30)
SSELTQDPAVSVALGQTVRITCVGDSLRQYYANWYQQKPGQAPILVIYGKNNRPSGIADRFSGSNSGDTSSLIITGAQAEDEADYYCSSVDSSGFQVFFGAGTKLTVL	3.09 2.82 2.11	2.67	1/9 (4.33)
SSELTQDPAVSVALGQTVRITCEGDSLRYYYANWYQQKPGQAPILVIYGKVNRWSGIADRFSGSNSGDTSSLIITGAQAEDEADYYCSSRDSSGFQVFFGAGTKLTVL	4.19 4.66 4.13	4.33	6/9 (3.77)
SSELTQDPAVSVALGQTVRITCEGDSLRYYYANWYQQKPGQAPILVIYGKNERPQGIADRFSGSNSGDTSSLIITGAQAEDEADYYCWSRDSSGFQVFFGAGTKLTVL	n.d. 5.17 n.d.	5.17	2/9 (2.74)
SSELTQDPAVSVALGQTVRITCEGDSLRYYYANWYQQKPGQAPILVIYGKNNWPSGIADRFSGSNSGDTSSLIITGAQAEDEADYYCSSRDNIGFQVFFGAGTKLTVL	3.39 n.d. 4.03	3.71	3/9 (4.24)
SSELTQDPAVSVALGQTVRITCVGDSARYYYANWYQQKPGQAPILVIYGKNNRPSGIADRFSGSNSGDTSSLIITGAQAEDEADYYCSSRDMSGFQVFFGAGTKLTVL	2.59 2.39 3.33	2.77	5/9 (3.72)
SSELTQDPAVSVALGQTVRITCEGDSLRFQYANWYQQKPGQAPILVIYGKNIRPSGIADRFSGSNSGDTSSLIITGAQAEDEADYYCSSRDSSGFQVFFGAGTKLTVL	0.92 0.95 0.23	0.70	2/9 (4.03)
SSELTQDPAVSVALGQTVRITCMGDSERYAYANWYQQKPGQAPILVIYGKNNRPSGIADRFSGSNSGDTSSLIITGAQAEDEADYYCSSRDSSGFQVFFGAGTKLTVL	2.99 2.93 3.01	2.98	2/9 (4.08)
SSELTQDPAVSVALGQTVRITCEGDSLRYYYALWYQQKPGQAPILVIYGKNNRNSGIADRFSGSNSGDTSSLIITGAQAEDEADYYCSSRDMSGFQVFFGAGTKLTVL	3.26 3.63 4.37	3.75	2/9 (4.15)
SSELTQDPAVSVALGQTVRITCEGDSLRYYYAYWYQQKPGQAPILVIYGWNNRPSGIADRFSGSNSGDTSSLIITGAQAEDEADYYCSTRDSSGFQVFFGAGTKLTVL	n.d. 5.44 n.d.	5.44	4/9 (3.91)
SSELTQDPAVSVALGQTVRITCEGDSLRMYYANWYQQKPGQAPILVIYGKNNRPSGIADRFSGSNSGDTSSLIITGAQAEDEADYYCSARDSSGHQVFFGAGTKLTVL	3.14 3.83 2.43	3.13	5/9 (3.56)

The 2 strongest on average among those seen in every replicate, once more:

VL	replicates, log10 nM	mean log10 Kd (nM)	empty controls
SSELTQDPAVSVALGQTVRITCEGDSLRFQYANWYQQKPGQAPILVIYGKNIRPSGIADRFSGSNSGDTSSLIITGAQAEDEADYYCSSRDSSGFQVFFGAGTKLTVL	0.92 0.95 0.23	0.70	2/9 (4.03)
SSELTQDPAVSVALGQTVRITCVGDSLRQYYANWYQQKPGQAPILVIYGKNNRPSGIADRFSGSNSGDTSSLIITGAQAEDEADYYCSSVDSSGFQVFFGAGTKLTVL	3.09 2.82 2.11	2.67	1/9 (4.33)

In this assay the parent's reference entry averaged 2.31; its copy inside this library read 2.25. Empty control strains, which show no peptide, gave a signal in 28% of pairings with library AAYL52; the median was 3.91 and 95% of these signals were weaker than 2.90. No background was subtracted. The control count says in how many pairings with the empty strains this scFv gave a signal, with their mean in brackets.